Data on three molecules can be found in patent publication US7348328B2, “MCH antagonists for the treatment of obesity” (Schering Corporation, priority 2001, dated 2008).

Chains of the proteins cited; added tags and fusions are not shown. Lines headed by an entry give the natural chain unless they say otherwise; changes in a name come on top.
UniProt Q99705: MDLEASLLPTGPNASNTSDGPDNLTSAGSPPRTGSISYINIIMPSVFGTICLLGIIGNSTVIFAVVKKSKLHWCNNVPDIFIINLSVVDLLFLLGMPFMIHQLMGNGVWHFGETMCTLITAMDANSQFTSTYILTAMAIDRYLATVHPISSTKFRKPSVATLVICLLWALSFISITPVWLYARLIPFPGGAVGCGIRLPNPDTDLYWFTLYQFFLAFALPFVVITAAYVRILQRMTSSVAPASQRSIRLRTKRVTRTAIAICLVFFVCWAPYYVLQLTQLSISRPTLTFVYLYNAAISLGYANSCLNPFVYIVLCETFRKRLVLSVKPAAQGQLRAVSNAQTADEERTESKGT

The target of this test is T1, MCH receptor (Homo sapiens, UniProt Q99705).
T1 construct: expressed in transfected cells; host or cells: CHO cells (membranes)
Briefly: MCH Receptor Binding Assay. Particulars: Table 1b, preferred compounds; read-out: MCH R1 Ki. As for the experimental part: MCH Receptor Binding Assay:
Membranes from CHO cells expressing the MCH receptor were prepared by lysing cells with 5 mM HEPES for 15 min at 4C. Cell lysates were centrifuged ([…], 15 min) and the pellet was resuspended in 5 mM HEPES. For each 96-well plate (Microlite, Dynex Technologies), 1 mg of cell membranes were incubated with 10 mg of wheat germ agglutinin SPA beads (Amersham) for 5 min at 4 C. in a volume of 10 ml of binding buffer (25 mM HEPES, 10 mM MGCl2, 10 mM NaCl, 5 mM MnCl2, 0.1% BSA). The membrane/bead mixture was centrifuged (1500×g, 3.5 min), the supernatant was aspirated, and the pellet was resuspended in 10 ml binding buffer. The centrifugation, aspiration and resuspension were then repeated. […] Nonspecific binding was determined by including 1 μM MCH in the binding reaction. The binding reaction was incubated at room temperature for 2 h. Plates were then analyzed in a TOPCOUNT microplate scintillation counter (Packard). Data was analyzed and Ki values were determined using GraphPad Prim.

The term Ki denotes a measure of affinity in units of concentration, obtained from inhibition or displacement. As to `N#Cc1cccc([C@@]23CC[C@@H](N(CCN4CCC[C@@H]4CO)C(=O)Nc4ccc(F)c(Cl)c4)CC2C3)c1` (stereo partly drawn), the inhibitory constant (Ki) was 7 nM.

For the molecule `COC(=O)c1cccc([C@@]23CC[C@@H](N(CCN(C(C)C)C(C)C)C(=O)Nc4ccc(F)c(F)c4)CC2C3)c1` (stereo partly drawn), the Ki was 34 nM.

`N#Cc1cccc([C@]23CC[C@H](N(CC4CCN(C5CCOCC5)CC4)C(=O)Nc4ccc(F)c(Cl)c4)CC2C3)c1` (stereo partly drawn): the Ki was 8.7 nM.
